Protein sequences, listed by entry. Tags and fused reporters are not part of them.
Melanocortin receptor 4 (Homo sapiens), P32245, UniProt P32245, whole entry, looked up: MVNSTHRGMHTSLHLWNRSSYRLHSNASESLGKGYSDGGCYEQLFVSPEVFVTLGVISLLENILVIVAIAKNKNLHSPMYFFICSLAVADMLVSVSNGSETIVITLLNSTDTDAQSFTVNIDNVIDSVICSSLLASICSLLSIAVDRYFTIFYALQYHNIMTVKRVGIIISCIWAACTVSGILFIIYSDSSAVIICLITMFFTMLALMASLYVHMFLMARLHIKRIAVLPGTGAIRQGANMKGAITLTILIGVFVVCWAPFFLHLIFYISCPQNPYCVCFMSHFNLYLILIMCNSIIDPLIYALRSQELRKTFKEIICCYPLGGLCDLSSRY

# ALR H2O2 inh: inhibitors of human sulfhydryl oxidase ALR; 290,000 tested, 3.8% active; inhibition, % (test concentration not listed); AID 485317; P55789; purified ALR, DTT oxidation, H2O2 HRP-luminol luminescence;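 active = mean and each replicate at 75% or more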;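 also: stock transfer was 7.5 nL into about 7.5 µL; 0% = neutral wells and 100% = wells with inactivated enzyme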
# MC4R antagonist: MC4R antagonists of cAMP signaling, primary screen, cell-based, TR-FRET, antagonist arm of biased-ligand search; AID 540295, 2011; 0.48% of 360,000 active; inhibition, % at 6.5 µM; Melanocortin receptor 4 (Homo sapiens), P32245; MC4R-expressing cells, MTII-stimulated cAMP, LANCE TR-FRET;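 active = inhibition above its plate's cutoff, the mean of tested wells on that plate plus 3 SD, cut at about 29% in these data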;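 note: 0% = Melanotan II alone and 100% = Melanotan II plus saturating MCL0020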
#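 Assay system: U2OS cells stably expressing human melanocortin 4 receptor (MC4R) / Dosing: 6.5 µM / Timing: compound 30 min, challenge 1 h, detection 1 h / Measured by: Eu-cAMP/anti-cAMP TR-FRET, emission 671 nm / Replicates: singlicate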
# HDAC3 inh: HDAC3 deacetylase inhibitors, primary screen, biochemical, fluorescence, cell-free homogeneous. Histone deacetylase 3 (Homo sapiens), O15379. AID 2718, 2010. inhibition, % at 8.3 µM. 0.15% of 320,000 active. recombinant HDAC3, fluorogenic peptide/trypsin coupled; in the data active = inhibition above about 26%, passing the limit was not always enough
# MC4R ag barr: MC4R agonists recruiting beta-arrestin, primary screen, cell-based, luminescence, agonist arm of biased-ligand search; Melanocortin receptor 4 (Homo sapiens), P32245; 0.98% of 360,000 active; activation, % at 8.9 µM; U2OS MC4R beta-arrestin complementation; percent of melanotan II response, DMSO zero;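 active = activation above a per-plate cutoff, the mean activation of sample wells on that plate plus 3 SD, cut at about 8% in these data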
# NALP1 inh: NALP1 inflammasome inhibitors in reconstituted yeast, colorimetric, S. cerevisiae, triplicate retest | S. cerevisiae NALP1/ASC/caspase-1 growth, X-gal OD620, 72 h | inhibition, % at 10 µM | 0.61% of 280,000 active; in the data active = inhibition mostly above about 24%, no sharp cut-off; inactive = mostly below about 32%
# UUG fidelity: yeast start codon fidelity modulation; activity score, % at 18.7 µM; actives 0.13% (n = 350,000); S. cerevisiae UUG-firefly luciferase reporter, luminescence/redox ratio; AID 602363;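 active means replicate mean at a twofold rise or more, about +100% in these data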;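 further: firefly luciferase made from a UUG start codon reports start codon fidelity; reporter light over untreated wells divided by growth signal over untreated wells; some hits fall short of that in this replicate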
# cAMP nonselect: nonselective cAMP signaling inhibitors, parental cells, counter-screen for MC4R biased antagonist project, cell-based, TR-FRET, U2OS, forskolin, triplicate; shares compounds with MC4R antagonist; LANCE TR-FRET; inhibition, % at 6.5 µM; 26% of 1,600 active; AID 602193, 2012;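 active = mean inhibition over triplicates above the low-control well mean plus 3 SD, set per campaign, cut at about 13% in these data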;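 note: signal is single emission at 671 nm which falls as cellular cAMP rises; 0% = forskolin-stimulated wells and 100% = buffer without forskolin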
# MC4R antag conf: MC4R cAMP antagonists, retest, confirmation, cell-based, TR-FRET; MC4R-expressing cells, MTII-stimulated cAMP; inhibition, % at 6.5 µM; shares compounds with MC4R antagonist; 27% of 1,600 active; in the data active = inhibition above about 29%;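 note: 0% = agonist stimulated wells alone and 100% = agonist stimulated wells plus saturating reference antagonist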
# An asterisk follows results filed as active; . = no result given. Sampled rows, rich in hits. Any-hit rate of the full collection: about 4.2%.
# Key to letters – A = ALR H2O2 inh; B = MC4R antagonist; C = HDAC3 inh; D = MC4R ag barr; E = NALP1 inh; F = UUG fidelity; G = cAMP nonselect; H = MC4R antag conf
O=C(OCC(=O)N1CCCC1=O)c1cc(Cl)ccc1O
  A: -5	B: 16	C: -4	D: 0	E: .	F: -19	G: .	H: .

C[C@H]1CN([C@@H](C)CO)S(=O)(=O)c2ccc(-c3ccncc3)cc2O[C@@H]1CN(C)Cc1cccnc1
  A: .	B: .	C: .	D: .	E: .	F: -12	G: .	H: .

COCC#Cc1ccc([C@@H]2[C@@H](CO)N3CCCCN(Cc4cccnc4)C[C@@H]23)cc1
  A: .	B: .	C: .	D: .	E: .	F: -4	G: .	H: .

O=C(NCc1cccnc1)C(=O)Nc1nccs1
  A: -1	B: .	C: -1	D: .	E: -7	F: .	G: .	H: .

O=C(NCc1cccnc1)C(=O)Nc1nc2ccccc2s1
  A: -10	B: 30*	C: -3	D: -1	E: 21	F: .	G: -4	H: -19

CCOC(=O)c1ccc(NC(=O)CSCC(=O)OCC(=O)c2ccccc2)cc1
  A: 100*	B: 36*	C: -1	D: 2	E: 23	F: 2	G: 8	H: 18

CCN(CC)C(=O)C(=O)Nc1ccc(Oc2ccccc2)cc1
  A: 3	B: 33*	C: 5	D: 1	E: 8	F: -15	G: 0	H: -11

Cc1c(NC(=S)N/C(=N/S(=O)(=O)c2ccc(Cl)cc2)c2ccccc2)c(=O)n(-c2ccccc2)n1C
  A: 0	B: 7	C: 0	D: -3	E: 16	F: -24	G: .	H: .

Cc1c(NC(=S)N/C(=N/S(=O)(=O)c2ccccc2)c2ccccc2)c(=O)n(-c2ccccc2)n1C
  A: 5	B: 30*	C: 0	D: 0	E: .	F: -14	G: -1	H: -1

COC(=O)c1sccc1NC(=S)Nc1ccc(F)cc1F
  A: 0	B: 30*	C: 1	D: 1	E: -13	F: .	G: -1	H: -19

O=C(CSc1ncn[nH]1)NN(c1ccccc1)c1ccccc1
  A: 47	B: -1	C: -11	D: -2	E: 28	F: .	G: .	H: .

O=C(CSc1nccc(=O)[nH]1)NN(c1ccccc1)c1ccccc1
  A: 23	B: 29*	C: -11	D: 0	E: 19	F: -16	G: -6	H: -20

O=C(COC(=O)c1nc(Cl)c(Cl)c(Cl)c1Cl)c1ccc[nH]1
  A: 4	B: 39*	C: -1	D: -3	E: .	F: 5	G: 11	H: 37*

C[C@@H]1CN([C@H](C)CO)C(=O)c2cc(/C=C/c3ccccc3)cnc2O[C@@H]1CN(C)C(=O)c1ccc(F)cc1
  A: .	B: .	C: .	D: .	E: .	F: 20	G: .	H: .

COc1ccc(C(=O)C(CN2CCCC2)c2ccccc2)cc1 (stereo not drawn)
  A: 22	B: 0	C: 10	D: 0	E: 16	F: -20	G: .	H: .

O=C(c1ccc(Cl)cc1)C(CN1CCCC1)c1ccccc1 (stereo not drawn)
  A: 12	B: 31*	C: -2	D: 5	E: 43*	F: 2	G: 4	H: -2

COc1ccccc1-c1cn(CC[C@H]2CC[C@H](NC(=O)c3ccccc3F)[C@H](CO)O2)nn1
  A: .	B: .	C: .	D: .	E: .	F: 15	G: .	H: .

Cc1ccc(-n2nc(-c3ccc(OC(F)(F)F)cc3)cc2N)cc1C
  A: 0	B: 29*	C: 3	D: 4	E: 10	F: 3	G: 4	H: 8

COc1cccc(S(=O)(=O)Nc2ccc3c(c2)OC[C@@H](C)NC[C@H](C)[C@@H](OC)CN(C)C3=O)c1
  A: .	B: .	C: .	D: .	E: .	F: 7	G: .	H: .

COc1ccc(NC(=O)Nc2ccc3c(c2)[C@H]2C[C@@H](CC(=O)N4CCCCC4)O[C@H](CO)[C@H]2O3)cc1
  A: .	B: .	C: .	D: .	E: .	F: 5	G: .	H: .

O=c1c(Cl)c(N2CCN(c3ccc(F)cc3)CC2)cnn1C12CC3CC(CC(C3)C1)C2
  A: 77*	B: 29*	C: 3	D: 3	E: 34	F: .	G: -1	H: 3

O=c1c(Cl)c(NCc2ccc(F)cc2)cnn1C12CC3CC(CC(C3)C1)C2
  A: -1	B: 7	C: -2	D: -1	E: -17	F: -15	G: .	H: .

O=C(CSc1n[nH]c(-c2ccccc2)n1)N1CCOCC1
  A: -6	B: 6	C: -1	D: -1	E: 2	F: -9	G: .	H: .

# Full records from above. Values in the order: ALR H2O2 inh	MC4R antagonist	HDAC3 inh	MC4R ag barr	NALP1 inh	UUG fidelity	cAMP nonselect	MC4R antag conf
# Listed for O=c1c(Cl)c(NCc2ccc(F)cc2)cnn1C12CC3CC(CC(C3)C1)C2 = -1	7	-2	-1	-17	-15	.	.
# Listed for COc1ccc(NC(=O)Nc2ccc3c(c2)[C@H]2C[C@@H](CC(=O)N4CCCCC4)O[C@H](CO)[C@H]2O3)cc1 = .	.	.	.	.	5	.	.

# Compound activity (PubChem)
